From patent US20030036111A1, “Mitochondrial protein” (priority 2001, published 2003) come the findings set out here.

The target in the assay is T1, human DNC (mitochondrial deoxynucleotide carrier) (Homo sapiens, UniProt Q9HC21).
T1 construct: Amino acids are numbered from 1-320; made in house; host or cells: E. coli BL21(DE3), pET21b; inclusion bodies solubilized in sarkosyl, Ni-NTA purified
T1 sequence (Q9HC21 2-320 limits assumed): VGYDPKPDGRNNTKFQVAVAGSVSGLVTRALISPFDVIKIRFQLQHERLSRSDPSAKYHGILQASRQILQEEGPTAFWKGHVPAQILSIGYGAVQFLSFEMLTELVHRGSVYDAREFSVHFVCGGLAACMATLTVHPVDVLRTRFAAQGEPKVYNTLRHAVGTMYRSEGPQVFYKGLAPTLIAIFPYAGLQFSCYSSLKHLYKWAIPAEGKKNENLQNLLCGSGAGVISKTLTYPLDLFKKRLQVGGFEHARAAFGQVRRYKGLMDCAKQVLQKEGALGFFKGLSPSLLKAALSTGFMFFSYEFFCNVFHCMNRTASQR
Kind of assay: Inhibition of [α-35S]dATP uptake (dATP/ADP exchange) by external substrates and carrier inhibitors. It counts as biochemical. To be noted: read-out: Ki, competitive inhibition of [α-35 S]dATP uptake by external substrate; internal ADP or dADP 10 mM.

As to dADP, the Ki came out at 14 µM.

Broadly, the Ki is the equilibrium dissociation constant of an inhibitor or competing ligand from its target.
